# Literature values as cited in article PMC6529454, “Development of human cGAS-specific small-molecule inhibitors for repression of dsDNA-triggered interferon expression” (Nature Communications, 2019).
# Test system: mouse macrophages
# Settings: read-out: IC50 in mouse macrophages; cited from earlier work
smiles,measurement,value
Cc1nn(-c2nc3ccc(Cl)c(Cl)c3[nH]2)c(O)c1C1OC(=O)c2ccccc21 (stereo not shown),IC50,0.7 µM
